Data reported in ChEMBL document CHEMBL1128690, “Design of potent non-thiourea H3-receptor histamine antagonists” (J Med Chem, 1995).

The chains behind the UniProt entries cited, without tags or fusion partners. Where a name states a change or a piece, a line headed by the entry shows the natural chain unless it says otherwise.
UniProt Q9QYN8: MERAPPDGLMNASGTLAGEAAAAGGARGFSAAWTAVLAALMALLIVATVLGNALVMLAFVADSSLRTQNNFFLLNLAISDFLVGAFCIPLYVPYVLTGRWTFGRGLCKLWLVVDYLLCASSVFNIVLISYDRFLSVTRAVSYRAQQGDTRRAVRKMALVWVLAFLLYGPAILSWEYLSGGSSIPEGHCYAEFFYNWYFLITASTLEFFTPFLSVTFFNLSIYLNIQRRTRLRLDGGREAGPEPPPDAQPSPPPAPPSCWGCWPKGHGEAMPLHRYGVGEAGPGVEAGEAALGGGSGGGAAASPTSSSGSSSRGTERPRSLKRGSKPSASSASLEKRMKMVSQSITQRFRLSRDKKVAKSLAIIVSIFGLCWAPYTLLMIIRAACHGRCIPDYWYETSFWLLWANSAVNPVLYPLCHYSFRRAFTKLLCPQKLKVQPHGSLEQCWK

Target: Histamine H3 receptor (Rattus norvegicus, UniProt Q9QYN8)
Test: In vitro antagonism of the histamine H3-receptor in the rat cerebral cortex.
Type: functional, tissue-based

Ki: 186 nM
SMILES: Nc1ccc(NCCc2c[nH]cn2)nc1
